Data as given in paper PMC4900556, “Connexin43 Forms Supramolecular Complexes through Non-Overlapping Binding Sites for Drebrin, Tubulin, and ZO-1” (PLoS ONE, 2016).

Molecular target: F-actin (rabbit skeletal muscle actin) (rabbit), P68135
Experiment: co-IP; anti-actin antibody on protein A agarose beads captures purified F-actin as bait; one GST-tagged prey added; 1% BSA in 1X PBS, overnight; Western blot with rabbit anti-GST; control without bait
Conditions: remark: other sources report otherwise

B1: Drebrin A 1–300 (Drb^1-300), untagged (domain or fragment, UniProt Q9QXS6 1-300, looked up)
chain: MAGVSFSGHRLELLAAYEEVIREESAADWALYTYEDGSDDLKLAASGEGGLQELSGHFENQKVMYGFCSVKDSQAALPKYVLINWVGEDVPDARKCACASHVAKVAEFFQGVDVIVNASSVEDIDAGAIGQRLSNGLARLSSPVLHRLRLREDENAEPVGTTYQKTDAAVEMKRINREQFWEQAKKEEELRKEEERKKALDARLRFEQERMEQERQEQEERERRYREREQQIEEHRRKQQSLEAEEAKRRLKEQSIFGDQRDEEEESQMKKSESEVEEAAAIIAQRPDNPREFFRQQERV
notes: Drebrin A residues 1-300; also called drebrin amino acids 1–300; N-terminal fragment of drebrin; source: E. coli Rosetta cells, purified on glutathione-agarose column, GST tag digested and captured with a Thrombin kit
Q: With B1 as the binder, how does the fold of band density with F-actin over beads without F-actin read?
A: The fold of band density with F-actin over beads without F-actin was 2.5 fold.
